Experimental data: US20260014194A1, “COMBINATIONS COMPRISING METAP2 INHIBITORS FOR THE TREATMENT OF CANCER” (SynDevRx, Inc., priority 2022, published 2026)
Structures can show the parent of a compound that is named as a salt.

Assay: Body weight, adipose tissue mass and tolerability in E0771 tumor-bearing high-fat diet mice
Conditions: FIG. 9; compared to vehicle group; Compound 1 6 or 12 mg/kg SC Q4D, eribulin mesylate 1 or 2 mg/kg IP

SMILES: C=C1C[C@@H]2CC[C@@]34C[C@H]5O[C@H]6[C@@H](O3)[C@H]3O[C@H](CC[C@@H]3O[C@H]6[C@H]5O4)CC(=O)C[C@@H]3[C@@H](OC)[C@@H](C[C@H](O)CN)O[C@H]3C[C@H]3O[C@@H](CC[C@@H]1O2)C[C@@H](C)C3=C [eribulin mesylate]
- Weight loss (body weight change over the study): increased as compared to the vehicle group
